{"source": "ChEMBL document CHEMBL3352818", "about": "“Seizure prevention by the naturally occurring phenols, carvacrol and thymol in a partial seizure-psychomotor model” (Bioorg Med Chem Lett, 2014)", "test": "Protective index, ratio of TD50 for CF1 albino mouse neurotoxicity to ED50 for protection against 6 Hz electroshock-induced seizure in CF1 albino mouse", "format": "toxicity, organism-based", "conditions": "in vivo, read-out: Ratio TD50/ED50"}
{"smiles": "CC[C@@H](C(N)=O)N1CCCC1=O", "note": "[LEVETIRACETAM]", "values": [{"measurement": "selectivity ratio", "result": "> 26"}]}
